## AlphaSeq binding of Ab-14 light chain variants to a spike HR2 peptide

The measurements come from Li et al. 2023 (doi:10.1038/s41467-023-39022-2) through the FLAb antibody collection.

Target: peptide PDVDLGDISGINAS, taken from heptad repeat 2 (HR2) of SARS-CoV-2 spike.

Ab-14 is the parent antibody, in scFv form: VH, then three GGGGS repeats, then VL. The heavy chain is unchanged in all variants.
VH: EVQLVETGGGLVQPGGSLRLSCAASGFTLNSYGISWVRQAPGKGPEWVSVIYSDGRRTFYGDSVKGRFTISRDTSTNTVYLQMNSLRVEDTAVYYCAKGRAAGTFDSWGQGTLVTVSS
VL: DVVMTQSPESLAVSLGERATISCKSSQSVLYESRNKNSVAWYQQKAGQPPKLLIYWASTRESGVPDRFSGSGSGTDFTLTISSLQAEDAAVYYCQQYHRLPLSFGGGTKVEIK

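The starting antibody came from a phage panning campaign against this peptide. The variants were designed computationally from a first round of random CDR variants and then made and measured. Their group label is 14L_En_Gibbs (En: ensemble of fine-tuned language models; Gibbs: Gibbs sampling). The scFvs were displayed on barcoded MATa yeast, the peptide on MATalpha yeast. Mating (16 h, 30 °C) was followed by selection of diploids and sequencing of their barcodes. The ratio of observed to expected reads was calibrated, replicate by replicate, on BCL2-family standards whose Kd was known from biolayer interferometry. Each pool was mated in six replicate cultures.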

Each variant's VL is given in full. The read-out is the apparent dissociation constant on a log10 scale (nM): the lower, the stronger. Replicates are averaged; those with no signal do not enter the mean. Where no diploid with the target was found in that replicate, the entry reads "nd": below detection, most likely a poor binder, though not proof of it. Three control strains display no target. For all light chain designs, 4% of the pairings with them gave a signal, with a median of 2.64 and one signal in twenty below 1.59, so weak values seen in few replicates may be background. For each scFv, signals with the empty controls are counted beside the result. The range of this assay differs from that of the first round, and the authors advise against merging the two. The authors' rule: three or more of the six replicates give a measured affinity, fewer mean a poor binder.

For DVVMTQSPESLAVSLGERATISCNMHNMCYQYENYGNSIAWYQQKAGQPPKLLIYHANMRENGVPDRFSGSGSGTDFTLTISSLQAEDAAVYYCQQYSRLPFTFGGGTKVEIK, the assay gave 0.62, 1.32, 0.47, 0.96, 0.25, 0.25 (mean 0.64; controls 0 of 18).
For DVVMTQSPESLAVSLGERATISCQFEDIKMKGNDFGDSVAWYQQKAGQPPKLLIYETNARYAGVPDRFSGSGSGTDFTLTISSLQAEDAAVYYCQQYFRLPLAFGGGTKVEIK, the assay gave 1.03, 0.74, 0.67, 0.59, 0.66, 0.71 (mean 0.73; controls 0 of 18).
For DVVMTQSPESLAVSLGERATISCQINHFGLSANLNSKNVAWYQQKAGQPPKLLIYAKNLRVDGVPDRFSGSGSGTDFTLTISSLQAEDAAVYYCQQYNRLPLSFGGGTKVEIK, the assay gave -0.01, -0.03, 0.00, -0.33, -0.17, -0.21 (mean -0.13; controls 1 of 18).
For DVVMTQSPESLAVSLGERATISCRIEDHHAEGEMRHSSIAWYQQKAGQPPKLLIYEESYRMDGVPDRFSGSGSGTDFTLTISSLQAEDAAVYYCQHYSRLPLAFGGGTKVEIK, the assay gave nd, nd, nd, 1.49, nd, nd (controls 0 of 18).
For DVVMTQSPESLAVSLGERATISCKFDFQMPELNYQDNAVAWYQQKAGQPPKLLIYGMTVSIEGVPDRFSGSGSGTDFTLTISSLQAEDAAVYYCQHYFRLPLTFGGGTKVEIK, the assay gave nd, nd, nd, 1.99, nd, 2.72 (mean 2.35; controls 0 of 18).
For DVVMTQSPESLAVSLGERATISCHVSSMDMTDGGIKKSVAWYQQKAGQPPKLLIYGDKETERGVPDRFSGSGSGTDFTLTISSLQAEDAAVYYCQQYMRLPLSFGGGTKVEIK, the assay gave 0.71, 0.13, 0.74, 0.35, 0.35, 0.45 (mean 0.45; controls 1 of 18).
For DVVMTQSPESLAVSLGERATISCHIDWYNRGETLKKDDIAWYQQKAGQPPKLLIYNATHREQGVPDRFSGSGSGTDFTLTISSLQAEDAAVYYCQQYFHLPLVFGGGTKVEIK, the assay gave 0.88, 0.32, 0.65, 0.54, 0.54, 0.78 (mean 0.62; controls 4 of 18).
For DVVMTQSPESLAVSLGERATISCVSDAFNFSDGQKWNNVAWYQQKAGQPPKLLIYQTSVRLQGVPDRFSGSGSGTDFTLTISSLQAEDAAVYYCQYYQRLPLMFGGGTKVEIK, the assay gave 1.36, 1.08, 0.89, 1.03, 1.23, 1.06 (mean 1.11; controls 0 of 18).
For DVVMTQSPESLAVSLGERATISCMLTMFNNENQGWSNNIAWYQQKAGQPPKLLIYDTNNVQEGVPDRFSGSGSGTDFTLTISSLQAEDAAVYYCQQYSRLPFMFGGGTKVEIK, the assay gave 1.10, 0.94, 0.83, 0.49, 0.64, 0.72 (mean 0.79; controls 0 of 18).
For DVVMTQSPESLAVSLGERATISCKLQGFSQNYNDIWNSIAWYQQKAGQPPKLLIYDESMKHTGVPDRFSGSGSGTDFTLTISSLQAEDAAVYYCQHYDRLPLVFGGGTKVEIK, the assay gave 2.42, 2.12, 2.30, 2.19, 1.99, 1.92 (mean 2.16; controls 0 of 18).
For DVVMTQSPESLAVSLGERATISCKLMMFMQGIGCMKNNIAWYQQKAGQPPKLLIYNLSEVATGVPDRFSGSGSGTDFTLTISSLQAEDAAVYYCQQYAQLPLVFGGGTKVEIK, the assay gave nd, nd, nd, nd, 3.10, 3.04 (mean 3.07; controls 0 of 18).
For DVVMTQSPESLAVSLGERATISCHIHSQMFGTIAVKKNVAWYQQKAGQPPKLLIYNANTRLSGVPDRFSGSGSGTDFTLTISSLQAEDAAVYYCQQYSHLPLSFGGGTKVEIK, the assay gave 1.62, 1.89, 0.90, 1.88, 1.04, 0.89 (mean 1.37; controls 0 of 18).
For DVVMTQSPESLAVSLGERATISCSVHFQGTTGEQNWESVAWYQQKAGQPPKLLIYENSIRVEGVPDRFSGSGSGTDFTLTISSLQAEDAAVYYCQQYSHLPLLFGGGTKVEIK, the assay gave 1.48, 0.90, 1.06, 1.12, 1.12, 1.24 (mean 1.15; controls 1 of 18).
For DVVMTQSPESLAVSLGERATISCKLTHVTFVLDRDKYSIAWYQQKAGQPPKLLIYDSERKMEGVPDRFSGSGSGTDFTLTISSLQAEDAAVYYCQQYNRLPLTFGGGTKVEIK, the assay gave 0.25, 0.37, 0.42, 0.23, 0.32, 0.55 (mean 0.36; controls 1 of 18).
For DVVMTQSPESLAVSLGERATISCHVTEQLRPGHETQNPIAWYQQKAGQPPKLLIYEASHRAAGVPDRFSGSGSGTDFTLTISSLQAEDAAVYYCQQYAHLPLGFGGGTKVEIK, the assay gave 2.12, 0.96, 1.03, 1.87, 0.96, 3.30 (mean 1.71; controls 1 of 18).
For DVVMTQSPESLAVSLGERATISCHLYHPWQSGQDSMQNVAWYQQKAGQPPKLLIYNDSTLMTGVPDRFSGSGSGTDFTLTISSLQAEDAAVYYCQHYNRLPLSFGGGTKVEIK, the assay gave nd, nd, 3.52, nd, nd, nd (controls 2 of 18).
For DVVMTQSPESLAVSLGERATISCKIEEYTKGDRYFQYSIAWYQQKAGQPPKLLIYQGDIREKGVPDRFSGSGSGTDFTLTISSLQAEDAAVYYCQQYGQLPLTFGGGTKVEIK, the assay gave 1.24, 1.97, 1.39, 1.63, 1.84, 1.76 (mean 1.64; controls 1 of 18).
For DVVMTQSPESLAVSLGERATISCSFDLTKSGMENERYSIAWYQQKAGQPPKLLIYERSVLMTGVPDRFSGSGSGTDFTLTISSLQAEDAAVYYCQDYHRLPLAFGGGTKVEIK, the assay gave nd, nd, nd, nd, nd, nd (controls 0 of 18).
For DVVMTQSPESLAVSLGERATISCRVRNEMGKEMERGQSVAWYQQKAGQPPKLLIYETEQRCMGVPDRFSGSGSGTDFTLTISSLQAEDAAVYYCQQYARLPLIFGGGTKVEIK, the assay gave 1.21, 0.34, 1.36, 0.35, 0.27, 1.06 (mean 0.76; controls 1 of 18).
For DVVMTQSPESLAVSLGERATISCQITFKQQYDFGNTYNIAWYQQKAGQPPKLLIYDATYSGRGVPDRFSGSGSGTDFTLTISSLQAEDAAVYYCQQYSQLPLSFGGGTKVEIK, the assay gave 2.24, 2.59, 1.53, 3.41, 3.44, 1.91 (mean 2.52; controls 1 of 18).
For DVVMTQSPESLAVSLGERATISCKLQTLTYTANIGENSVAWYQQKAGQPPKLLIYDANVHVDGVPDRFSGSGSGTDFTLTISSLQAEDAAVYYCQQYFRLPLSFGGGTKVEIK, the assay gave 0.93, 1.03, 1.16, 1.37, 0.89, 0.97 (mean 1.06; controls 0 of 18).
For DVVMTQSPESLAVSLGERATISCYMSGQIDEGWNQQEAIAWYQQKAGQPPKLLIYQVTYKEDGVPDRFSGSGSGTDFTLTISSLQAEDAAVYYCQQYYKLPLSFGGGTKVEIK, the assay gave nd, nd, nd, nd, nd, nd (controls 0 of 18).
For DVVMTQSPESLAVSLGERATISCSLRLKELGMSYNANNVAWYQQKAGQPPKLLIYDSENRIKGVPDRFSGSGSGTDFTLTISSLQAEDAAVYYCQQYYRLPLMFGGGTKVEIK, the assay gave 0.69, 0.51, 0.13, 0.26, 0.43, 0.84 (mean 0.48; controls 1 of 18).
For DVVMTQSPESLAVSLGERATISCYMDSGDVDGQKSKESIAWYQQKAGQPPKLLIYDADHSGAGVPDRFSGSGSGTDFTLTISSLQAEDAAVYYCQQYARLPLGFGGGTKVEIK, the assay gave 1.69, 1.56, 1.06, 1.42, 1.18, 1.52 (mean 1.41; controls 0 of 18).